{"sequences": {"note": "Chains of the proteins cited; added tags and fusions are not shown. Lines headed by an entry give the natural chain unless they say otherwise; changes in a name come on top.", "UniProt P15428": "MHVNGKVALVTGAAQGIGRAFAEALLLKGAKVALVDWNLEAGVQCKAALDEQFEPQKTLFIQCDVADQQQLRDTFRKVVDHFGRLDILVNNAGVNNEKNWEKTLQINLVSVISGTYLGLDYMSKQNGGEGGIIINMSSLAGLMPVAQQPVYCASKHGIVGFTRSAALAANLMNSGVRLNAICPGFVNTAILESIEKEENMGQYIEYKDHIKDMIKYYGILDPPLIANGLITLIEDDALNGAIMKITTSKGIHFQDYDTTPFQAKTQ"}, "source": "patent US8637558B2", "about": "(Industry-Academic Cooperation Foundation, Chosun University, priority 2008, dated 2014)", "biological_target": "15-PGDH (Homo sapiens (Human), UniProt P15428)", "test": "Assay for the activities of 15-PGDH inhibitors (formation of NADH at 340 nm)", "assay_type": "biochemical", "conditions": "purified 15-PGDH enzyme, 21 μM PGE2, 0.25 mM NAD+, pH 7.5; concentration inhibiting 50% of 15-PGDH activity", "protocol": "<1-1> Expression and Purification of 15-PGDH\nA 15-PGDH cDNA plasmid containing BamHI and EcoRI sites of the pGES-2T expression vector was used to transform Escherichia coli BL-21 lysS in accordance with the ordinarily used in the art. The transformed cells were grown in 500 mL LB medium containing 50 μg/mL ampicillin at 37° C. while being stirred at 220 rpm until the OD600 reached 0.6. Isopropyl β-D-thiogalactoside (1 mM) was added and the cells were allowed to grow for 12 hours at 25° C. Then, the pellets were harvested by centrifugation at 4000×g for 30 minutes at 4° C. The cell pallets were resuspended in 20 mL cell lysis buffer (1×PBS buffer (pH 7.4) containing 1 mM EDTA and 0.1 mM DTT) and sonicated (14×10 s at 4° C.). The disrupted cells were centrifuged at 4000×g for 20 minutes at 4° C. The supernatant was loaded slowly on a glutathione-sepharose 4B column, which was equilibrated at 4° C. with a cell lysis buffer (1×PBS buffer (pH 7.4) containing 1 mM EDTA and 0.1 mM DTT). […] The concentration and the purity of the purified enzyme were determined by SDS-PAGE. […]\nThe absorbance of the reaction mixture was recorded at 340 nm so that the activities of the derivatives according to the present invention as 15-PGDH inhibitors were determined from a standard curve prepared from the absorbance of various concentrations of NADH at 340 nm."}
{"substance": "5-(3-(benzyloxy)-2-chlorobenzylidene)thiazolidine-2,4-dione [Derivative 72]", "values": [{"measurement": "IC50", "value": 257, "unit": "nM"}]}
